From US20220193029A1, “BRYOSTATIN COMPOUNDS FOR ENHANCEMENT OF IMMUNOTHERAPY” (priority 2019, published 2022)

What was measured:
PKCδ-GFP fusion protein = test: PKCδ-GFP translocation assay in living CHO-k1 cells (confocal microscopy); format: cell-based, Chinese hamster
[1] = tested on: CD22 surface expression in NALM6 cells; test: CD22 surface expression assay by flow cytometry; format: cell-based, human; conditions: At 1 nM, relative to DMSO control

CCCC=CC=CC(=O)O[C@H]1/C(=C/C(=O)OC)C[C@H]2C[C@H]([C@@H](C)O)OC(=O)C[C@H](O)C[C@@H]3C[C@H](OC(C)=O)C(C)(C)[C@](O)(C[C@@H]4C[C@H](OC(=O)Nc5ccccc5)C[C@H](/C=C/C(C)(C)[C@]1(O)O2)O4)O3
time required for translocation (PKCδ-GFP fusion protein; 200 nM): about 15 minutes | concentration* (minimum effective concentration required to induce translocation of PKC-GFP to the membrane) (PKCδ-GFP fusion protein; CHO-k1 cells): 200 nM | % Translocation (PKCδ-GFP fusion protein; maximum translocation of PKCδ-GFP to the plasma membrane at the concentration printed in the same cell, CHO-k1 cells, SUW212: only brief translocation observed): 75% | PKC translocation behavior / dynamics of PKC activation (PKCδ-GFP fusion protein; time course, FIG. 6 panels C-D): delayed activation patterns | Fold increase CD22 expression [1]: 1.68 fold
